Results on eleven compounds are retold here after US7741341B2, “Benzimidazole-derivatives as factor Xa inhibitors” (sanofi-aventis Deutschland GmbH, priority 2003, dated 2010).

Amino acid sequences for entries named in this document (tags omitted). Residues count along the entry.
UniProt P00742, 235-488 limits assumed: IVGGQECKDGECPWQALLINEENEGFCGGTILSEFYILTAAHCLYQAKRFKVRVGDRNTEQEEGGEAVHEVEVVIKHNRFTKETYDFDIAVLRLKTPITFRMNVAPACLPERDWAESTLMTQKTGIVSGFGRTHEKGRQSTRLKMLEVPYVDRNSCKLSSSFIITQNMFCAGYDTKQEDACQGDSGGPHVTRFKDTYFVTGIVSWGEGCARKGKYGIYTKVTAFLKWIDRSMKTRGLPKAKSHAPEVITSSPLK
UniProt P00742, 41-179 partner limits assumed: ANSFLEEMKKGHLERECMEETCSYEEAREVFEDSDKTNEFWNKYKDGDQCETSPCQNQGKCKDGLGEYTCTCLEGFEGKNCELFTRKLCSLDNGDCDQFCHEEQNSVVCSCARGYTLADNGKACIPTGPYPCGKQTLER

pKi: −log10 of the molar value.

The target in the assay is human factor Xa (Homo sapiens, UniProt P00742). The experiment in a line: Factor Xa assay (chromogenic, substrate S-2765). Format: biochemical. The note with it: read-out: Ki(FXa); inhibition constant for factor Xa; purified enzyme 0.5 nM, substrate S-2765 140 μM, 25° C.; Ki calculated from IC50.

As for `CC(C)N1CCC(NC(=O)c2nc3cc(S(=O)(=O)CCO)ccc3n2CC(=O)Nc2ccc(Cl)cn2)CC1`, the pKi was 7.15.

As for `CC(C)N1CCC(NC(=O)c2nc3ccc(S(=O)(=O)CCO)cc3n2CC(=O)Nc2ccc(Cl)cn2)CC1`, the pKi was 6.65.

As for `CC(C)N1CCC(NC(=O)c2nc3c(C(=O)O)scc3n2Cc2cc(-c3ccc(Cl)s3)on2)CC1`, the pKi is 8.30.

For the compound `O=C(O)c1cccc2c1nc(C(=O)NC1CCN(C3CC3)CC1)n2Cc1cc(-c2ccc(Cl)s2)on1`, the pKi is 7.52.

On to `O=C(O)c1ccc2c(c1)nc(C(=O)NC1CCN(C3CC3)CC1)n2Cc1cc(-c2ccc(Cl)s2)no1`, for which the pKi is 7.66.

Take `COc1cccc(Cn2c(C(=O)NC3CCN(C(C)C)CC3)nc3c(C(=O)O)cccc32)c1`: the pKi is 6.25.

For `O=C(O)c1ccc2nc(C(=O)NC3CCN(C4CC4)CC3)n(Cc3cc(-c4ccc(Cl)s4)no3)c2c1`, the negative-log Ki (pKi) was 6.73.

For `Cc1cc(C(=O)O)cc2nc(C(=O)NC3CCN(C4CC4)CC3)n(Cc3cc(-c4ccc(Cl)s4)on3)c12`, the pKi was 9.10.

Consider `CC(C)N1CCC(NC(=O)c2nc3c(C(=O)O)cccc3n2CCc2ccc(Cl)cc2)CC1`, for which the pKi was 7.19.

`CC(C)N1CCC(NC(=O)c2nc3csc(C(=O)O)c3n2CC(=O)Nc2ccc(Cl)cn2)CC1`: the pKi was 4.05.

In the case of `CC(C)N1CCC(NC(=O)c2nc3c(C(=O)O)scc3n2CC(=O)Nc2ccc(Cl)cn2)CC1`, the pKi was 7.66.

By pKi is commonly meant the negative decadic logarithm of the Ki, by convention in mol/L.
